Values of other authors, collected in patent US20160081975A1, “SOFT GEL COMPOSITIONS AND PRE-GEL CONCENTRATES” (VIRUN, INC., priority 2014, published 2016).

Settings: low concentrations, in water

- Concentration forming a micellar solution: 40 to 60 µM
Substance: D-α-tocopheryl polyethylene glycol succinate [TPGS]
